Among the data in PMC3392958, “Assay Format as a Critical Success Factor for Identification of Novel Inhibitor Chemotypes of Tissue-Nonspecific Alkaline Phosphatase from High-Throughput Screening” (Molecules, 2010) are IC50 values, retold here.

This assay addresses T1, IAP (Homo sapiens, UniProt P09923).
T1 construct: made in house; host or cells: COS-1 cells, transient expression; dialyzed serum-free conditioned medium
T1 sequence (P09923 20-503 limits assumed): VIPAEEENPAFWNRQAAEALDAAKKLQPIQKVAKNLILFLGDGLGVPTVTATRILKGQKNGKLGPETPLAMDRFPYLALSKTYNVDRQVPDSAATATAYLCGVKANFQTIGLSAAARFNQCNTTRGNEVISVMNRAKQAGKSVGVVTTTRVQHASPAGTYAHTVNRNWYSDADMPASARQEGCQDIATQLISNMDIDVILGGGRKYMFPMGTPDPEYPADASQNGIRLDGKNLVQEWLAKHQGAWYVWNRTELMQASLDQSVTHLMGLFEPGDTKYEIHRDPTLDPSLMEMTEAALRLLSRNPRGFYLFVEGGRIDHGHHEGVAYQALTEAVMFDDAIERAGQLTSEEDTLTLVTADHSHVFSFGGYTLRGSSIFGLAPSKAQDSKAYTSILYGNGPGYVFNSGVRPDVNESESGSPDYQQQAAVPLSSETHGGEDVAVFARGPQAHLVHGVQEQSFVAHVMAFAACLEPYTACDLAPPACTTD
Nature of the assay: IAP luminescent assay (CDP-star). It counts as biochemical.

Where two headings read alike, the source gives them in different places.

For `O=C1c2ccccc2C(=O)N1c1nnc(Cc2ccccc2)[nH]1` [MLS-0091978], the half-maximal inhibitory concentration (IC50) (as a rule, the concentration at which inhibition is half-maximal) reads like this: (phtalimide triazole series, read-out: IC50 IAP-Lumi) 8.87 µM; (read-out: IAP IC50) 8.9 µM.
